Compounds with a hit are over-represented: about 2.2% of the library has one in this group of screens.
PI4K2A block – PI4K2A (human) kinase inhibition | Q9BTU6 | purified PI4K2A, ADP-Glo luminescence, 1 h; stronger effect = lower value | activity change, negative = inhibition, % at 76.9 µM | 420,000 compounds, 0.13% hits | AID 1346378; in the data active = activity change below about -50%; inconclusive = mostly about -30% to -49%
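PI4K2A activity was measured by ADP-Glo luminescence: enzyme (4 ug/mL stock) and phosphatidylinositol (1.2 mM stock) in Tris pH 7.5/MgCl2/EGTA/Triton X-100 buffer were reacted with ATP (300 microM stock) for one hour at ambient temperature.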
Nrf2 activator – activators of Nrf2 (ARE) signaling; AREc32 ARE-luciferase reporter (MCF7-derived line), luminescence, 24 h; Potency, µM (series often up to 46.1 µM), actives largely listed as activators; 410,000 compounds, 0.31% hits; note: nearly all actives have a fitted effect of over 65% in size
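Each well held 1000 AREc32 cells, which were incubated with compound for 24 hr at 37 deg C after overnight attachment, and ARE reporter activity was quantified by firefly luciferase luminescence.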
A549 tox-1 – kills or reduces viability of A549 cells in Nrf2 counter-screen | 390,000 compounds, 0.16% hits | A549 ARE-Fluc cells, CellTiter-Fluor viability, 18-24 h | AID 504648 | Potency, µM (titrated, usually from 46 µM), hits mostly inhibitors
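A549 ARE-Fluc cells in 5% FBS OPTI-MEM, 5000 cells/well, rested 2 h then exposed to compounds in concentration-response for 18-24 h at 37 °C. Viability by CellTiter-Fluor fluorescence (Ex 405/Em 525) after 30 min; luciferase luminescence (BugLite, 15 min, RT) read afterwards.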
Nrf2 block – Nrf2 pathway inhibition. A549 ARE-Fluc reporter, luciferase luminescence, 18-24 h. 360,000 compounds, 2.1% hits. Potency, µM (highest dose often 46 µM), actives largely listed as inhibitors; note: nearly all actives have a fitted effect of over 60% in size
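Nrf2 activity is the BugLite luminescence, read 15 min after reagent at room temperature, following CellTiter-Fluor cytotoxicity readout (30 min, 37C). Compound titrations were applied for 18-24 h to 5000 A549 ARE_Fluc cells/well in 5% FBS OPTI-MEM.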
miR-21 reporter – raises the signal of a miR-21 reporter | HeLa miR-21 FLuc reporter, luciferase, 48 h | Potency, µM (highest dose often 38.3 µM) | 340,000 tested, under 10 active | AID 2288; active = well fitted rising curve with a large enough effect; inconclusive = small, poorly fitted or top-dose-only effect; inactive = no such curve, though single readings can be large or run the other way;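 also: miR-21 action dims this reporter so a rising signal means less miR-21 action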
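HeLa cells endogenously expressing miR-21, stably carrying CMV-driven firefly luciferase with a downstream miR-21 binding site, 2000 cells/well. Titrations up to approximately 40 uM, 48 hours; luciferase luminescence read.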
GALK inhibitor – inhibitors of human galactokinase. P51570. Purified GALK, Kinase-Glo residual ATP luminescence. Potency, µM (titrated, usually from 57.5 µM), hits mostly inhibitors. 270,000 compounds, 0.007% hits. AID 1868
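Compounds were pin-transferred into ATP buffer (35 uM final), then GALK plus galactose (5 nM, 100 uM final) was added. After 1 h at room temperature, Kinase-Glo Plus was added and luminescence read after 10 min.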
FLuc enzyme inh – counter-screen for Nrf2 inhibitors: firefly luciferase enzyme inhibition | shares compounds with Nrf2 block | 1,400 compounds, 4% hits | AID 720522 | purified firefly luciferase, luminescence inhibition | Potency, µM (titrated, usually from 57.5 µM), actives largely listed as inhibitors; note: nearly all actives have a fitted effect of over 65% in size
A549 tox-2 – A549 cytotoxicity, Nrf2 inhibitor counterscreen; AID 720523; Potency, µM (titrated, usually from 46.1 µM), most hits filed as inhibitors; 1,400 compounds, 2% hits; A549 ARE-Fluc cells, cytotoxicity counterscreen; shares compounds with Nrf2 block;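 note: cells exposed to compounds for 18 to 24 hours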
ARE-Fluc inh – Nrf2 inhibition confirmed, A549 ARE-luciferase; shares compounds with Nrf2 block; A549 ARE-firefly luciferase reporter, luminescence; Potency, µM (doses to about 46.1 µM), hits mostly inhibitors; 1,400 compounds, 74% hits; note: nearly all actives have a fitted effect of over 65% in size
Of the large screens only hits and unclear results are named; the others gave an inactive call (follow-up assays come after a bar, where they were run). Unless noted, calls come from the whole dose curve; as a rule, active = well fitted curve in the direction sought with a large enough effect; inconclusive = small, poorly fitted or top-dose-only effect, or another doubt; inactive = no such curve, though single readings can be large; an effect the other way counts as inactive or inconclusive.

CC1=CC(=O)C=C/C1=C(/c1ccc(O)cc1C)c1ccccc1S(=O)(=O)O	none (no result: miR-21 reporter, GALK inhibitor)
Cc1nnsc1C(=O)Nc1ccc(S(=O)(=O)N2CCC(C)CC2)cc1	Nrf2 block 9.2µM | FLuc enzyme inh inactive | A549 tox-2 inactive | ARE-Fluc inh 5.2µM
N#CCC[C@H]1CC[C@]2(CCCN(C(=O)C3CCCCC3)C2)O1	none (no result: Nrf2 activator, A549 tox-1, Nrf2 block, miR-21 reporter, GALK inhibitor)
CC1(c2ccc3ccccc3c2)NC(=O)N(CC(=O)N2CCC(C(N)=O)CC2)C1=O (stereo unspecified)	none (no result: miR-21 reporter, GALK inhibitor)
CC1(c2ccc3ccccc3c2)NC(=O)N(CC(=O)N2CCN(Cc3ccccc3)CC2)C1=O (stereo unspecified)	A549 tox-1 inconclusive, Nrf2 block 1.3µM (no result: miR-21 reporter, GALK inhibitor) | FLuc enzyme inh inactive | A549 tox-2 inactive | ARE-Fluc inh 4.6µM
COc1ccccc1Oc1ncnc2sccc12	none
c1ccc2c(c1)OCC(CNc1ncnc3sccc13)O2 (stereo unspecified)	Nrf2 block 1.5µM | FLuc enzyme inh inactive | A549 tox-2 inactive | ARE-Fluc inh 1.2µM
COc1ccc(CCNc2ncnc3c2oc2ccccc23)cc1OC	Nrf2 block 5.2µM, miR-21 reporter inconclusive | FLuc enzyme inh inactive | A549 tox-2 inactive | ARE-Fluc inh 4.1µM
COc1ccccc1CNc1ncnc2sccc12	Nrf2 block 3.3µM | FLuc enzyme inh inactive | A549 tox-2 inactive | ARE-Fluc inh 4.1µM
Fc1ccccc1CNc1ncnc2sccc12	Nrf2 block 4.1µM | FLuc enzyme inh inactive | A549 tox-2 inactive | ARE-Fluc inh 5.2µM
COc1ccc(CCNc2ncnc3c2c(C)c(C)n3CCO)cc1OC	Nrf2 block inconclusive
CN1C2=N[C@H](c3ccc(Br)cc3)CC(=O)N2/C(=C\c2ccccc2)[C@@H]1c1ccccc1	none (no result: Nrf2 activator, A549 tox-1, Nrf2 block, miR-21 reporter, GALK inhibitor)
O=C(NCCc1c[nH]c2ccccc12)OCc1cn(Cc2cccc(F)c2F)nn1	none (no result: Nrf2 activator, A549 tox-1, Nrf2 block, miR-21 reporter, GALK inhibitor)
COc1ccc(Nc2ncnc3sccc23)cc1OC	Nrf2 block inconclusive
COc1ccc(CCNc2ncnc3sccc23)cc1OC	Nrf2 block 0.58µM | FLuc enzyme inh inactive | A549 tox-2 inactive | ARE-Fluc inh 0.52µM
NS(=O)(=O)c1ccc(CNc2ncnc3sccc23)cc1	none
CN(C)c1ccc(CNc2ncnc3sccc23)cc1	Nrf2 block 4.6µM | FLuc enzyme inh inactive | A549 tox-2 inactive | ARE-Fluc inh 12µM
COc1ccc(OC)c(Nc2nc(-c3sc(NC(=O)C(C)(C)C)nc3C)cs2)c1	Nrf2 block 8.2µM | FLuc enzyme inh inactive | A549 tox-2 inactive | ARE-Fluc inh inconclusive
COc1ccc(Cl)cc1Nc1nc(-c2sc(NC(=O)C(C)(C)C)nc2C)cs1	Nrf2 block 4.1µM, miR-21 reporter inconclusive | FLuc enzyme inh inactive | A549 tox-2 inactive | ARE-Fluc inh 1.8µM
CNc1c(Br)cc(C(O)C2=CCc3ccccc32)cc1Br (stereo unspecified)	none (no result: PI4K2A block, Nrf2 activator, A549 tox-1, Nrf2 block, miR-21 reporter, GALK inhibitor) | FLuc enzyme inh inactive | A549 tox-2 inactive | ARE-Fluc inh 4.6µM
O=C(c1cnn2c(C(F)(F)F)cc(-c3ccccc3)nc12)N1CCCCC1c1cccnc1 (stereo unspecified)	Nrf2 block inconclusive
O=C(c1cc2nc(-c3ccc(F)cc3)cc(C(F)(F)F)n2n1)N1CCCCC1c1cccnc1 (stereo unspecified)	A549 tox-1 inconclusive, Nrf2 block 4.6µM | FLuc enzyme inh inactive | A549 tox-2 inactive | ARE-Fluc inh 6.5µM
